Test results taken from BindingDB's records for 23769640.

Protein sequences, listed by entry. Tags and fused reporters are not part of them. Residues count along the entry.
UniProt P40881, 35-247 limits assumed: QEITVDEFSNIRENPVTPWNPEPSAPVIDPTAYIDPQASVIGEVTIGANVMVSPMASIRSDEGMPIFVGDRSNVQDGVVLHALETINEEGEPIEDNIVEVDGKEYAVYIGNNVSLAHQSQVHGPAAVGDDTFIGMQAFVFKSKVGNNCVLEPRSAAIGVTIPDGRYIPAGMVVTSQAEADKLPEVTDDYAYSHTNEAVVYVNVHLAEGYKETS

Biological target: Carbonic anhydrase (Methanosarcina thermophila (strain ATCC 43570 / DSM 1825 / OCM 12 / VKM B-1830 / TM-1), UniProt P40881)

Structure (SMILES): N#CO
- Ki: 90 µM
